This passage reports maximum fold increase results from PubChem BioAssay AID1956 (SRMLSC, 2009).

The structures appear in SMILES notation. The list shows a part of the results, in another mix than the full data. Active and inactive are the calls of the source. Rule as the data show it: active = maximum fold increase above about 1.5; inconclusive = no clear call, values can overlap the other calls; inactive = below that; tested in PC3 cells.

A short description of the test: compounds boosting herpes simplex virus growth – fold increase, host cell viability (AID 1956). The following applies: HSV replication augmentation in cells; at 3.125 µM.
For `O=P1(Nc2ncccn2)COc2ccccc2OC1`, the maximum fold increase result was “inactive”.

In the case of `CN1CCCCC1COC(=O)C1(O)c2ccccc2CCc2ccccc21` (centres undefined), the maximum fold increase result is “inactive”. To `COc1ccccc1OP(C)(=O)Nc1c(C)cccc1C` (centres undefined) belongs “inactive”. As to `O=P1(Nc2ccc(Br)cn2)COc2ccccc2OC1`, the maximum fold increase result is “inactive”. To `Cc1ccc(OCC(=O)OC2CN3CCC2CC3)cc1` (centres undefined) belongs “inactive”; to `O=[As](O)(c1cccs1)c1cccs1`, “inactive”. `CP(=O)(Nc1ccc(SC(F)(F)F)cc1)Oc1ccccc1` (centres undefined): the maximum fold increase result is “inactive”. To `CCCOc1ccc(NP(C)(=O)Oc2ccc(Cl)cc2)cc1` (centres undefined) belongs “inactive”; to `COc1cc(C2NCCC3(OCCO3)C2(C)C)cc(OC)c1OC.O=[N+]([O-])c1cc([N+](=O)[O-])c(O)c([N+](=O)[O-])c1` (centres undefined), “inactive”. For `CC1CCC(C(C)C)C(OP(=O)(Nc2ccccn2)c2ccccc2)C1` (centres undefined), the maximum fold increase entry is “inactive”.

`Cc1nn(-c2ccccc2)c2c1P(=O)(N1CCOCC1)N(C)C(c1ccccc1)=N2` (centres undefined): the maximum fold increase result is “inactive”. To `O=C(/C=C/c1ccccc1)OC1CN2CCC1CC2` (centres undefined) belongs “inactive”.

In the case of `CCOC(=O)C(CC)C1=NC(C)(C)Cc2ccccc21.O=[N+]([O-])c1cc([N+](=O)[O-])c(O)c([N+](=O)[O-])c1` (centres undefined), the maximum fold increase entry was “inactive”. To `O=[N+]([O-])c1cc([N+](=O)[O-])c(Nc2nnnn2CCO)c([N+](=O)[O-])c1` belongs “inactive”; to `CN(C)C1(CNC(=O)c2ccc(S(C)(=O)=O)cc2)CCCCC1`, “inactive”.

`CC1(CBr)Cn2c(nc3ccccc3c2=O)S1` (centres undefined): the maximum fold increase entry was “inactive”. To `Cc1nc2ccc3ccccc3c2s1.O=[N+]([O-])c1cc([N+](=O)[O-])c(O)c([N+](=O)[O-])c1` belongs “inactive”; to `O=[As](O)(c1ccccc1Br)c1ccccc1Br`, “inactive”; to `CN(C(=O)Cc1ccc(Cl)c(Cl)c1)[C@@H]1CCCC[C@H]1N1CCCC1`, “inactive”.

Turning to `CC(C)/C=N\N=C(\N)N[N+](=O)[O-]`, the maximum fold increase entry was “inactive”. To `CN(CCCl)Cc1cc(Cl)c(NC2=NCCN2)c(Cl)c1` belongs “inactive”.

For `CCOP(=O)(Nc1ccc(C)cn1)OCC`, the maximum fold increase entry is “inactive”. To `O=[N+]([O-])c1cc([N+](=O)[O-])c(-n2nnc3ccccc32)c([N+](=O)[O-])c1` belongs “inactive”; to `O=P1(Nc2ccccn2)COc2ccccc2OC1`, “inactive”; to `CC(C)(C)C(=O)NC(Sc1ncccn1)C(Cl)(Cl)Cl` (centres undefined), “inactive”.

As to `Clc1n[nH]nc1-c1nn[nH][15n]1`, the maximum fold increase result is “inactive”. On to `CCCOP(=S)(Nc1nc(N)cc(=O)[nH]1)OCCC`, for which the maximum fold increase entry was “inactive”. To `Cc1ccc(C)c(NP(C)(=O)Oc2ccccc2)c1` (centres undefined) belongs “inactive”; to `Cc1ccc(NCCc2c([N+](=O)[O-])cc([N+](=O)[O-])cc2[N+](=O)[O-])cc1`, “inactive”. To `CP(=O)(Nc1cccc(Br)c1)Oc1ccccc1` (centres undefined) belongs “inactive”; to `Cc1cc(C)cc(OP(C)(=O)Nc2ccccn2)c1` (centres undefined), “inactive”; to `CCOP(=O)(Nc1cccc2ccccc12)OCC`, “inactive”.

For the molecule `COc1ccccc1OP(C)(=O)Nc1cccc(Br)c1` (centres undefined), the maximum fold increase result is “inactive”. To `COc1cc(C(=O)NCC2(N3CCOCC3)CCCCC2)cc(Cl)c1OC(C)C` belongs “inactive”. To `O=[As](O)(O)c1cccnc1` belongs “inactive”.

Turning to `O=C(OC1CN2CCC1CC2)c1ccc(Cl)cc1` (centres undefined), the maximum fold increase result was “inactive”. Turning to `CCOC(=O)c1ccc(NP(C)(=O)Oc2cc(C)cc(C)c2)cc1` (centres undefined), the maximum fold increase entry was “inactive”.

Regarding `Cc1cc(C)cc(OP(C)(=O)Nc2ccc(C)cc2C)c1` (centres undefined), the maximum fold increase entry is “inactive”.

With `O=[As](O)(c1cccc(O)c1)c1cccc(O)c1`, the maximum fold increase entry is “inactive”. To `Cc1cccc(OCC(=O)OC2CN3CCC2CC3)c1` (centres undefined) belongs “inactive”; to `NC(=O)Nc1ccc([As](=O)(O)O)cc1`, “inactive”. To `CN(C(=O)Cc1ccc(Cl)c(Cl)c1)[C@H]1CC[C@@]2(CCCO2)C[C@@H]1N1CCCC1` belongs “inactive”; to `CC1=NCCc2c1[nH]c1ccccc21.O=[N+]([O-])c1cc([N+](=O)[O-])c(O)c([N+](=O)[O-])c1`, “inactive”.

Turning to `O=[N+]([O-])c1ccc2c(c1)nnn2O`, the maximum fold increase result was “inactive”. `CCOP1(=S)c2c(C)nn(CCC#N)c2N=C(c2ccc(F)cc2)N1C` (centres undefined): the maximum fold increase entry was “inactive”. To `CN(C(=O)Cc1ccccc1)[C@@H]1CC[C@]2(CCCO2)C[C@H]1N1CCCC1` belongs “inactive”. To `CS(=O)(=O)c1cc([N+](=O)[O-])c2no[n+]([O-])c2c1` belongs “inactive”; to `O=P(Nc1nccs1)(c1ccccc1)c1nc2ccccc2s1` (centres undefined), “inactive”; to `O=P(Nc1nccs1)(Oc1ccccc1)Oc1ccccc1`, “inactive”. To `O=C(O)c1cccc(Nc2c([N+](=O)[O-])cc([N+](=O)[O-])cc2[N+](=O)[O-])c1` belongs “inactive”; to `CCOP1(=S)c2c(C)nn(CCC#N)c2N=C(c2ccccc2F)N1C` (centres undefined), “inactive”. Turning to `O=C(O)COc1ccc([As](=O)(O)O)cc1[N+](=O)[O-]`, the maximum fold increase result was “inactive”. To `Nc1ccccc1[As](=O)(O)c1ccccc1` belongs “inactive”; to `CC(C)c1ccc(OP(=O)(Nc2ccccn2)Oc2ccccc2F)cc1` (centres undefined), “inactive”. To `COc1ccccc1OP(C)(=O)Nc1ccc(C)cc1` (centres undefined) belongs “inactive”. In the case of `ClCCSc1nnc(-c2cccnc2)o1`, the maximum fold increase result was “inactive”. To `CCOC(=O)c1ccc(NP(C)(=O)Oc2ccccc2)cc1` (centres undefined) belongs “inactive”; to `Cc1cc(C)cc(OP(C)(N)=O)c1` (centres undefined), “inactive”; to `O=[N+]([O-])c1cc([N+](=O)[O-])c(-c2ccn[nH]2)s1`, “inactive”. To `CCN(CC)C(=S)SC(NC=O)C(Cl)(Cl)Cl` (centres undefined) belongs “inactive”. To `CC(C)NC(=O)NP(=O)(Oc1ccccc1)Oc1ccccc1` belongs “inactive”. Consider `COc1ccccc1OP(C)(=O)Nc1cc(Cl)ccc1C` (centres undefined), for which the maximum fold increase entry is “inactive”. To `C[As](=O)(O)c1cccc(C(=O)O)c1` belongs “inactive”. To `O=[As](O)(c1ccc(O)cc1)c1ccccc1O` belongs “inactive”; to `Cc1ccc2nc3c(c(C)c2c1)CC(C(Cl)Cl)S3` (centres undefined), “inactive”. To `O=[N+]([O-])c1ccc2c(c1)C=Nc1ccccc1O2` belongs “inactive”; to `Cc1cccc(C)c1OP(C)(N)=O` (centres undefined), “inactive”. In the case of `CC(C)(C)c1ccc(OP(C)(=O)Nc2ccc(SC(F)(F)F)cc2)cc1` (centres undefined), the maximum fold increase entry was “inactive”.

Take `Cc1ccc(OP(=O)(Nc2ccc([N+](=O)[O-])cn2)Oc2ccc(C)cc2)cc1`: the maximum fold increase result is “inactive”. To `COc1ccc(N/C(=N/P(=O)(N2CCOCC2)N2CCOCC2)N2CCOCC2)cc1` belongs “inactive”. Consider `Cc1cc(=O)[nH]c(N[N+](=O)[O-])n1`, for which the maximum fold increase result is “inactive”.

As for `CCN(CC)CCCOC(=O)C(O)(c1ccccc1)c1ccccc1`, the maximum fold increase result is “inactive”. To `O=C(OC1CN2CCC1CC2)C12CC3CC(CC(C3)C1)C2` (centres undefined) belongs “inactive”; to `Cc1c2c(nc3ccccc13)SC(C(Cl)Cl)C2` (centres undefined), “inactive”.
